Data reported in ChEMBL document CHEMBL3864129, “Polybrominated Diphenyl Ethers: Structure Determination and Trends in Antibacterial Activity” (J Nat Prod, 2016).

System: Escherichia coli
Assay: Antimicrobial activity against Escherichia coli ATCC 25922 by CLSI M07-A9 method
Format: functional
Summary of the method: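 Laboratory strains tested following CLSI guidelines. Each compound was run in duplicate in at least two independent experiments, and the MIC was recorded.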

GENTAMICIN
MIC: 0.5 µg/mL
